Calls of active or inactive are those of the source. No cut-off for these calls is given here.
Assays:
Format in all cases: functional, cell-based
[1] = biological target: T1, Uracil nucleotide/cysteinyl leukotriene receptor (Homo sapiens, UniProt Q13304); assay: Agonist activity at human GPR17 in human LN-229 cells assessed as fold decrease in calcium levels absence of GPR17 siRNA incubated for 2 hrs by Calcium Fura 2 Dynamic assay; conditions: filed as agonist
[2] = biological target: T1, Uracil nucleotide/cysteinyl leukotriene receptor; assay: Agonist activity at human GPR17 in human LN-229 cells transfected with GPR17 siRNA assessed as decrease in calcium levels incubated for 2 hrs by Calcium Fura 2 Dynamic assay; conditions: filed as agonist
[3] = biological target: T1, Uracil nucleotide/cysteinyl leukotriene receptor; assay: Agonist activity at human GPR17 in human LN-229 cells assessed as fold decrease in calcium ion levels at 1 to 100 uM incubated for 2 hrs by Calcium Fura 2 Dynamic assay; conditions: filed as agonist, dose 1-100 µM
[4] = biological target: T1, Uracil nucleotide/cysteinyl leukotriene receptor; assay: Agonist activity at human GPR17 in human SNB-19 cells assessed as fold decrease in calcium levels absence of GPR17 siRNA incubated for 2 hrs by Calcium Fura 2 Dynamic assay; conditions: filed as agonist
[5] = biological target: T1, Uracil nucleotide/cysteinyl leukotriene receptor; assay: Agonist activity at human GPR17 in human SNB-19 cells transfected with GPR17 siRNA assessed as decrease in calcium levels incubated for 2 hrs by Calcium Fura 2 Dynamic assay; conditions: filed as agonist
[6] = biological target: T1, Uracil nucleotide/cysteinyl leukotriene receptor; assay: Agonist activity at human GPR17 in human SNB-19 cells assessed as fold decrease in calcium ion levels at 1 to 100 uM incubated for 2 hrs by Calcium Fura 2 Dynamic assay; conditions: filed as agonist, dose 1-100 µM

Protein sequences, listed by entry. Tags and fused reporters are not part of them.
UniProt Q13304, whole entry: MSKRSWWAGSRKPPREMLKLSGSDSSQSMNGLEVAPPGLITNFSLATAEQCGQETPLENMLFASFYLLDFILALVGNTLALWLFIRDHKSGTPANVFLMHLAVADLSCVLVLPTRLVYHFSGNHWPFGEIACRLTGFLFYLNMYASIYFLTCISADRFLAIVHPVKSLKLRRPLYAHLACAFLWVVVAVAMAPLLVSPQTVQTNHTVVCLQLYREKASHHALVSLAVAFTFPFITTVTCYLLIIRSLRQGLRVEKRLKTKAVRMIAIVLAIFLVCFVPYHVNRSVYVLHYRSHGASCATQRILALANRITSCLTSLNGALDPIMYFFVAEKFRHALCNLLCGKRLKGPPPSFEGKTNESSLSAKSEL

For `O=C(Nc1ccccc1)Oc1cc(OC(=O)Nc2ccccc2)c2c(c1)N(C(c1ccc(F)cc1)c1cccc(Cl)c1O)CC2` (stereo unspecified), the fold change (FC) [1] was 1.6, the Activity [2] was “Active” and the fold change (FC) [3] was 1.1. For the same compound, the fold change (FC) [4] was 1.6, the Activity [5] was “Active” and the fold change (FC) [6] was 1.1.

Reference: ChEMBL document CHEMBL5030526, “Synthesis and Preclinical Validation of Novel Indole Derivatives as a GPR17 Agonist for Glioblastoma Treatment” (J Med Chem, 2021)
